Source: patent publication US9205154B2, “Method for screening an agent being useful for the treatment of dry eye and/or corneal and conjunctival lesion and a pharmaceutical composition obtained by the method” (R-TECH UENO, LTD., priority 2009, dated 2015)
Marks after values point to notes of the source that are not given here.

Test system: cornea of rabbits with n-heptanol-induced keratoconjunctival injury
Assay: Model rabbit of n-heptanol-induced corneal and conjunctival lesion; fluorescein staining score of cornea
Format: in vivo, Rabbits (std:NZW)

## 10% nHSA: Kenketsu albumin-Wf (25% human serum albumin formulation, Mitsubishi Tanabe Pharma) diluted with sodium chloride solution
Day 0 (day of n-heptanol treatment), ocular, 50 μl/eye, 2 times per day for 10 days, total score out of 15, smaller = higher restoring effect
  Scores of fluorescein staining (mean of 6 cases), Day 0: 15.00
Day 1, ocular, 50 μl/eye, 2 times per day for 10 days, total score out of 15
  Scores of fluorescein staining (mean of 6 cases), Day 1: 15.00
Day 2, ocular, 50 μl/eye, 2 times per day for 10 days, total score out of 15
  Scores of fluorescein staining (mean of 6 cases), Day 2: 15.00
Day 3, ocular, 50 μl/eye, 2 times per day for 10 days, total score out of 15
  Scores of fluorescein staining (mean of 6 cases), Day 3: 14.83
Day 3.5, ocular, 50 μl/eye, 2 times per day for 10 days, total score out of 15
  Scores of fluorescein staining (mean of 6 cases), Day 3.5: 13.83
Day 4, ocular, 50 μl/eye, 2 times per day for 10 days, total score out of 15
  Scores of fluorescein staining (mean of 6 cases), Day 4: 12.83 *
Day 4.5, ocular, 50 μl/eye, 2 times per day for 10 days, total score out of 15
  Scores of fluorescein staining (mean of 6 cases), Day 4.5: 11.00 **
Day 5, ocular, 50 μl/eye, 2 times per day for 10 days, total score out of 15
  Scores of fluorescein staining (mean of 6 cases), Day 5: 7.17 *
Day 5.5, ocular, 50 μl/eye, 2 times per day for 10 days, total score out of 15
  Scores of fluorescein staining (mean of 6 cases), Day 5.5: 6.17 *
Day 6, ocular, 50 μl/eye, 2 times per day for 10 days, total score out of 15
  Scores of fluorescein staining (mean of 6 cases), Day 6: 4.83 *
Day 7, ocular, 50 μl/eye, 2 times per day for 10 days, total score out of 15
  Scores of fluorescein staining (mean of 6 cases), Day 7: 3.17
Day 8, ocular, 50 μl/eye, 2 times per day for 10 days, total score out of 15
  Scores of fluorescein staining (mean of 6 cases), Day 8: 1.83
Day 9, ocular, 50 μl/eye, 2 times per day for 10 days, total score out of 15
  Scores of fluorescein staining (mean of 6 cases), Day 9: 1.50
Day 10, ocular, 50 μl/eye, 2 times per day for 10 days, total score out of 15
  Scores of fluorescein staining (mean of 6 cases), Day 10: 1.50 *
Comparison of Test Example 3 with Test Example 1
  effect of restoring corneal tissue compared with serum: equal to or more than that of serum
Days 4, 4.5, 5, 5.5, 6 and 10 of the treatment of lesion (Days 4, 5, 5.5, 6, 10: p<0.05; Day 4.5: p<0.01)
  scores of fluorescein staining of cornea compared to saline: significantly lowered
Versus saline in the other eye, Paired Student's t-test, significance level less than 5%, result in words
  effect of restoring corneal tissue / corneal epithelium: significant effect of restoring corneal tissue
